For 2 substances, IC50 results are on record in patent US12152047B2, “Anti-cancer gold compounds” (Royal Melbourne Institute of Technology, priority 2019, dated 2024).

Holding throughout (format): cell-based
Common to all, as to settings: 48 h incubation, mean ± SD of three experiments

One data set has as its system A549 (lung) cancer cells. Put plainly: MTT assay (in vitro cytotoxicity), A549. The protocol: (§1) For all the assays, unless otherwise mentioned, stock solutions of the metal compounds were freshly prepared in DMSO (10 mM) and 1% DMSO in complete medium was used as a control.
(§2) The MTT [3-(4,5-dimethylthiazol-2-yl)-2,5-diphenyltetrazolium bromide] assay is based on the conversion of a yellow coloured MTT solution to purple formazan crystals by the active mitochondrial dehydrogenases of viable cells. Thus, the intensity of the produced purple colour is proportional to the number of viable cells. The cells were seeded in 96 well plates depending on cellular doubling time and were treated with solutions of the metal compounds (100 μM, 10 μm, 1 μM, 0.1 μM, 0.01 μM) after overnight incubation. The cells were further incubated for 48 h and the medium containing the test compounds was removed before addition of 100 μL MTT solution (5 mg/mL) in serum-free medium. After 4 h incubation in the dark at 37° C., the excess MTT solution was removed from the wells and 100 μL of DMSO was added to each well to solubilise the formed formazan crystals. The absorbance of formazan solution from each well was recorded using a Spectramax micro titre plate reader at 570 and 630 nm. […] For all the assays, stock solutions of gold compounds were prepared in DMSO (10 mM) and the final treatment concentrations (100 μM-0.01 μM) were made in complete growth medium.
In general terms: Tetrazolium dyes change colour on reduction, which living cells bring about.

Data set [1] concerns HeLa (cervical) cancer cells. Briefly: MTT assay (in vitro cytotoxicity), HeLa. The protocol:
as §1, §2

Data set [2] deals with HeK-293 (normal) human embryonic kidney cells. Briefly: MTT assay (in vitro cytotoxicity), HeK-293. The protocol:
as §1, §2

Data set [3] relates to PC3 (prostate) cancer cells. Briefly: MTT assay (in vitro cytotoxicity), PC3. The protocol:
as §1, §2

The test system of data set [4] is HT-1080 (bone, fibrosarcoma) cancer cells. Briefly: MTT assay (in vitro cytotoxicity), HT-1080. The protocol: as §1, §2

In general, IC50 refers to the point on the concentration scale where inhibition reaches its midpoint. Lower therefore signals greater potency. With “[Au(PPh2py){κC-2-C6H4P(S)Ph2}] [Compound 4]”, the IC50 with A549 (lung) cancer cells is over 50 µM; in data set [1], 1.35 ± 0.23 µM; in data set [2], 950 ± 200 nM; in data set [3], 610 ± 80 nM; in data set [4], 6.65 ± 0.35 µM.

For “[Au{PPh2(C6H4-3-SO3Na)}{κC-2-C6H4P(S)Ph2}] [Compound 3]”, the IC50 in the data set on A549 (lung) cancer cells is over 50 µM; in data set [1], 9.13 ± 0.82 µM; in data set [3] it was 5220 ± 220 nM; in data set [4], 3.09 ± 0.16 µM.
